The target of the assay is 5-hydroxytryptamine receptor 4 (Homo sapiens, UniProt Q13639). Description: Agonist activity at human recombinant 5HT4 receptor transiently transfected in human COS7 cells using p-nitrophenyl phosphate disodium hexahydrate as substrate assessed as induction of sAPPalpha release by measuring maximum efficacy incubated for 30 mins by microplate reader analysis relative to control. It is filed as functional, cell-based.

By UniProt entry, the sequences of proteins in these tests, tags left out. Where a name states a change or a piece, a line headed by the entry shows the natural chain unless it says otherwise.
UniProt Q13639: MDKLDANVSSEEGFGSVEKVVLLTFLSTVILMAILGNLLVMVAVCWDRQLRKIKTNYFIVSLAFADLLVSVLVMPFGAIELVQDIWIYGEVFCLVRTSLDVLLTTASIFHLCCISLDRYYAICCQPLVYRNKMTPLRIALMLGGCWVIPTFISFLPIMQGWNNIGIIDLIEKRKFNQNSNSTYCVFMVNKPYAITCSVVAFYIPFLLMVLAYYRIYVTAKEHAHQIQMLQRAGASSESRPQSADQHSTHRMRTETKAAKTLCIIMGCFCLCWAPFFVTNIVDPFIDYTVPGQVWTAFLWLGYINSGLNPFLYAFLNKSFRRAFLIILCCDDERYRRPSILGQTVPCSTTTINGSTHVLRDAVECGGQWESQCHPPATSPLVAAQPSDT

Molecules are shown by their SMILES.

One may read the Emax as the greatest response seen or fitted, relative to the assay's reference. With `CCCCN1CCC(CCC(=O)c2cc(Cl)c(N)cc2OC)CC1`, the Emax is 23.5%.

For the origin of these results see ChEMBL document CHEMBL6092210, “Synthesis, in vitro and in vivo biological evaluation of novel dual compounds targeting both acetylcholinesterase and serotonergic 5-HT4 receptors with potential interest in the treatment of Alzheimer's disease” (Eur J Med Chem, 2024).
